For the assay, the species on record is Homo sapiens. The following applies: dose 100.0 µM.

The structures appear in SMILES notation.

In general, ΔTm refers to the change in melting temperature against a reference sample.

In the case of `CCCCNC(=O)c1cc(-c2ccc(Cl)cc2)sc1N`, the ΔTm is 2.5 °C.
